Measured values taken from PubChem BioAssay (NCI).
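Cells were grown in 96-well plates and exposed to each compound for 48 hours at five concentrations; endpoints were interpolated linearly between bracketing concentrations, or set to the highest concentration if not reached. GI50 = concentration required for 50% inhibition of growth. TGI marks complete inhibition of growth.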

How the values were obtained:
Experiment in all cases: inhibition of tumour cell growth, NCI panel, 48 h
786-0 renal = system: 786-0 renal
A498 renal = system: A498 renal
A549 NSCLC = system: A549 NSCLC
ACHN renal = system: ACHN renal
BT-549 breast = system: BT-549 breast
CAKI-1 renal = system: CAKI-1 renal
CCRF-CEM leukemia = system: CCRF-CEM leukemia
DU-145 prostate = system: DU-145 prostate
EKVX NSCLC = system: EKVX NSCLC
HCC-2998 colon = system: HCC-2998 colon
HCT-116 colon = system: HCT-116 colon
HCT-15 colon = system: HCT-15 colon
HL-60(TB) leukemia = system: HL-60(TB) leukemia
HOP-62 NSCLC = system: HOP-62 NSCLC
HOP-92 NSCLC = system: HOP-92 NSCLC
HS 578T breast = system: HS 578T breast
HT29 colon = system: HT29 colon
IGROV1 ovarian = system: IGROV1 ovarian
K-562 leukemia = system: K-562 leukemia
KM12 colon = system: KM12 colon
LOX IMVI melanoma = system: LOX IMVI melanoma
M14 melanoma = system: M14 melanoma
MALME-3M melanoma = system: MALME-3M melanoma
MDA-MB-231 breast = system: MDA-MB-231 breast
MDA-MB-435 = system: MDA-MB-435
MDA-N = system: MDA-N
MOLT-4 leukemia = system: MOLT-4 leukemia
NCI-H226 lung = system: NCI-H226 lung
NCI-H23 lung = system: NCI-H23 lung
NCI-H322M lung = system: NCI-H322M lung
NCI-H460 lung = system: NCI-H460 lung
NCI-H522 lung = system: NCI-H522 lung
NCI/ADR-RES ovarian = system: NCI/ADR-RES ovarian
OVCAR-3 ovarian = system: OVCAR-3 ovarian
OVCAR-4 ovarian = system: OVCAR-4 ovarian
OVCAR-5 ovarian = system: OVCAR-5 ovarian
OVCAR-8 ovarian = system: OVCAR-8 ovarian
PC-3 prostate = system: PC-3 prostate
RXF 393 renal = system: RXF 393 renal
SF-268 CNS = system: SF-268 CNS
SF-295 CNS = system: SF-295 CNS
SK-MEL-2 melanoma = system: SK-MEL-2 melanoma
SK-MEL-28 melanoma = system: SK-MEL-28 melanoma
SK-MEL-5 melanoma = system: SK-MEL-5 melanoma
SN12C renal = system: SN12C renal
SNB-19 CNS = system: SNB-19 CNS
SR leukemia = system: SR leukemia
SW-620 colon = system: SW-620 colon
T-47D breast = system: T-47D breast
TK-10 renal = system: TK-10 renal
U251 CNS = system: U251 CNS
UACC-257 melanoma = system: UACC-257 melanoma
UACC-62 melanoma = system: UACC-62 melanoma
UO-31 renal = system: UO-31 renal

O=C(O)C(O)c1ccc([As](=O)(O)O)cc1 (stereo not drawn)
GI50 (786-0 renal): > 100 µM | TGI (786-0 renal): > 100 µM | GI50 (A498 renal): > 100 µM | TGI (A498 renal): > 100 µM | GI50 (A549 NSCLC): > 100 µM | TGI (A549 NSCLC): > 100 µM | GI50 (ACHN renal): > 100 µM | TGI (ACHN renal): > 100 µM | GI50 (BT-549 breast): > 100 µM | TGI (BT-549 breast): > 100 µM | GI50 (CAKI-1 renal): > 100 µM | TGI (CAKI-1 renal): > 100 µM | GI50 (CCRF-CEM leukemia): > 100 µM | TGI (CCRF-CEM leukemia): > 100 µM | GI50 (DU-145 prostate): > 100 µM | TGI (DU-145 prostate): > 100 µM | GI50 (EKVX NSCLC): > 100 µM | TGI (EKVX NSCLC): > 100 µM | GI50 (HCC-2998 colon): > 100 µM | TGI (HCC-2998 colon): > 100 µM | GI50 (HCT-116 colon): > 100 µM | TGI (HCT-116 colon): > 100 µM | GI50 (HCT-15 colon): > 100 µM | TGI (HCT-15 colon): > 100 µM | GI50 (HL-60(TB) leukemia): > 100 µM | TGI (HL-60(TB) leukemia): > 100 µM | GI50 (HOP-62 NSCLC): > 100 µM | TGI (HOP-62 NSCLC): > 100 µM | GI50 (HOP-92 NSCLC): > 100 µM | TGI (HOP-92 NSCLC): > 100 µM | GI50 (HS 578T breast): > 100 µM | TGI (HS 578T breast): > 100 µM | GI50 (HT29 colon): > 100 µM | TGI (HT29 colon): > 100 µM | GI50 (IGROV1 ovarian): > 100 µM | TGI (IGROV1 ovarian): > 100 µM | GI50 (K-562 leukemia): > 100 µM | TGI (K-562 leukemia): > 100 µM | GI50 (KM12 colon): > 100 µM | TGI (KM12 colon): > 100 µM | GI50 (LOX IMVI melanoma): > 100 µM | TGI (LOX IMVI melanoma): > 100 µM | GI50 (M14 melanoma): > 100 µM | TGI (M14 melanoma): > 100 µM | GI50 (MALME-3M melanoma): > 100 µM | TGI (MALME-3M melanoma): > 100 µM | GI50 (MDA-MB-231 breast): > 100 µM | TGI (MDA-MB-231 breast): > 100 µM | GI50 (MDA-MB-435): > 100 µM | TGI (MDA-MB-435): > 100 µM | GI50 (MDA-N): > 100 µM | TGI (MDA-N): > 100 µM | GI50 (MOLT-4 leukemia): > 100 µM | TGI (MOLT-4 leukemia): > 100 µM | GI50 (NCI-H226 lung): > 100 µM | TGI (NCI-H226 lung): > 100 µM | GI50 (NCI-H23 lung): > 100 µM | TGI (NCI-H23 lung): > 100 µM | GI50 (NCI-H322M lung): > 100 µM | TGI (NCI-H322M lung): > 100 µM | GI50 (NCI-H460 lung): > 100 µM | TGI (NCI-H460 lung): > 100 µM | GI50 (NCI-H522 lung): > 100 µM | TGI (NCI-H522 lung): > 100 µM | GI50 (NCI/ADR-RES ovarian): > 100 µM | TGI (NCI/ADR-RES ovarian): > 100 µM | GI50 (OVCAR-3 ovarian): > 100 µM | TGI (OVCAR-3 ovarian): > 100 µM | GI50 (OVCAR-4 ovarian): > 100 µM | TGI (OVCAR-4 ovarian): > 100 µM | GI50 (OVCAR-5 ovarian): > 100 µM | TGI (OVCAR-5 ovarian): > 100 µM | GI50 (OVCAR-8 ovarian): > 100 µM | TGI (OVCAR-8 ovarian): > 100 µM | GI50 (PC-3 prostate): > 100 µM | TGI (PC-3 prostate): > 100 µM | GI50 (RXF 393 renal): > 100 µM | TGI (RXF 393 renal): > 100 µM | GI50 (SF-268 CNS): > 100 µM | TGI (SF-268 CNS): > 100 µM | GI50 (SF-295 CNS): > 100 µM | TGI (SF-295 CNS): > 100 µM | GI50 (SK-MEL-2 melanoma): > 100 µM | TGI (SK-MEL-2 melanoma): > 100 µM | GI50 (SK-MEL-28 melanoma): > 100 µM | TGI (SK-MEL-28 melanoma): > 100 µM | GI50 (SK-MEL-5 melanoma): > 100 µM | TGI (SK-MEL-5 melanoma): > 100 µM | GI50 (SN12C renal): > 100 µM | TGI (SN12C renal): > 100 µM | GI50 (SNB-19 CNS): > 100 µM | TGI (SNB-19 CNS): > 100 µM | GI50 (SR leukemia): > 100 µM | TGI (SR leukemia): > 100 µM | GI50 (SW-620 colon): > 100 µM | TGI (SW-620 colon): > 100 µM | GI50 (T-47D breast): > 100 µM | TGI (T-47D breast): > 100 µM | GI50 (TK-10 renal): > 100 µM | TGI (TK-10 renal): > 100 µM | GI50 (U251 CNS): > 100 µM | TGI (U251 CNS): > 100 µM | GI50 (UACC-257 melanoma): > 100 µM | TGI (UACC-257 melanoma): > 100 µM | GI50 (UACC-62 melanoma): > 100 µM | TGI (UACC-62 melanoma): > 100 µM | GI50 (UO-31 renal): > 100 µM | TGI (UO-31 renal): > 100 µM
